This is an account of results in patent US9840501B2, “Morpholin-pyridine derivatives” (Hoffmann-La Roche Inc., priority 2014, dated 2017).

Sequences of proteins named here, by UniProt entry; tags and fusion partners are left off.
UniProt Q923Y9, whole entry: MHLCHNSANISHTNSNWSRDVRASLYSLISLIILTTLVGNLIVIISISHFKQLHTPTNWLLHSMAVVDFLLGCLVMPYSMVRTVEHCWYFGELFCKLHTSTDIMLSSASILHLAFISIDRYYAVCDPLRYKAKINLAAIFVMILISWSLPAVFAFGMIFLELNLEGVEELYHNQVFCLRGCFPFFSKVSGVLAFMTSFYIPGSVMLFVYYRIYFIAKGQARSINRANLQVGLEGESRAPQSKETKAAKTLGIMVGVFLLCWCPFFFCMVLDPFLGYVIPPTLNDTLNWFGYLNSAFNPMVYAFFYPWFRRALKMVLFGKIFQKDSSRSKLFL
UniProt Q923Y8, whole entry: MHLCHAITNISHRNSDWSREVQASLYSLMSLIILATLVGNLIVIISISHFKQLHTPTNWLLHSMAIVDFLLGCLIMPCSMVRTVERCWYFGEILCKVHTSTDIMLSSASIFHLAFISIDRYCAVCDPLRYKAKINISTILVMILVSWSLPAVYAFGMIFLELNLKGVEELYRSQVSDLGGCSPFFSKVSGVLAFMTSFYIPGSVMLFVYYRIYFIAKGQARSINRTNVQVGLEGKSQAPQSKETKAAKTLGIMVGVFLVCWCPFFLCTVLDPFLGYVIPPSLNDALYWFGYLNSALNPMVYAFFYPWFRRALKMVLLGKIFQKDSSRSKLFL

In the first assay the target is rat TAAR1 (Rattus norvegicus (Rat), UniProt Q923Y9). As to the kind of experiment: Radioligand binding assay on rat TAAR1. As to conditions: rat TAAR1, membranes of stably transfected HEK-293 cells; second value of the pair; read-out: Ki (μM) mouse/rat: rat. Here is the method:
(§1) For the construction of expression plasmids the coding sequences of human, rat and mouse TAAR 1 were amplified from genomic DNA essentially as described by Lindemann et al.. The Expand High Fidelity PCR System (Roche Diagnostics) was used with 1.5 mM Mg^2+ and purified PCR products were cloned into pCR2.1-TOPO cloning vector (Invitrogen) following the instructions of the manufacturer. PCR products were subcloned into the pIRESneo2 vector (BD Clontech, Palo Alto, Calif.), and expression vectors were sequence verified before introduction in cell lines.
(§2) For the generation of stably transfected cell lines HEK293 cells were transfected with the pIRESneo2 expression plasmids containing the TAAR coding sequences (described above) with Lipofectamine 2000 (Invitrogen) according to the instructions of the manufacturer, and 24 hrs post transfection the culture medium was supplemented with 1 mg/ml G418 (Sigma, Buchs, Switzerland). After a culture period of about 10 d clones were isolated, expanded and tested for responsiveness to trace amines (all compounds purchased from Sigma) with the cAMP Biotrak Enzyme immunoassay (EIA) System (Amersham) following the non-acetylation EIA procedure provided by the manufacturer.
Radioligand Binding Assay on Rat TAAR1
(§3) Membrane Preparation and Radioligand Binding.
(§4) Cells were released from culture flasks using trypsin/EDTA, harvested, washed twice with ice-cold PBS (without Ca^2+ and Mg^2+), pelleted at 1′000 rpm for 5 min at 4° C., frozen and stored at −80° C. Frozen pellets were suspended in 20 ml HEPES-NaOH (20 mM, pH 7.4) containing 10 mM EDTA and homogenized with a Polytron (PT 6000, Kinematica) at 14′000 rpm for 20 s. The homogenate was centrifuged at 48′000×g for 30 min at 4° C. Subsequently, the supernatant was removed and discarded, and the pellet resuspended in 20 ml HEPES-NaOH (20 mM, pH 7.4) containing 0.1 mM EDTA using the Polytron (20 s at 14′000 rpm). This procedure was repeated and the final pellet resuspended in HEPES-NaOH containing 0.1 mM EDTA and homogenized using the Polytron. Typically, aliquots of 2 ml membrane portions were stored at −80° C. With each new membrane batch the dissociation constant (Kd) was determined via a saturation curve. […] Nonspecific binding was defined as the amount of ^3[H]—(S)-4-[(ethyl-phenyl-amino)-methyl]-4,5-dihydro-oxazol-2-ylamine bound in the presence of 10 μM unlabeled ligand. All compounds were tested at a broad range of concentrations (10 pM to 10 μM) in duplicates. […] The 96 deep well plates were incubated for 1 hr at 4° C. Incubations were terminated by rapid filtration through Unifilter-96 plates (Packard Instrument Company) and glass filters GF/C (Perkin Elmer) presoaked for 1 hr in polyethylenimine (0.3%) and washed 3 times with 1 ml of cold binding buffer. After addition of 45 μl of Microscint 40 (PerkinElmer) the Unifilter-96 plate was sealed and after 1 hr the radioactivity counted using a TopCount Microplate Scintillation Counter (Packard Instrument Company).
Regarding `Clc1cccc(Nc2ccc(C3CNCCO3)nc2)c1` (racemic) [Example 4, (RS)—N-(3-Chlorophenyl)-6-morpholin-2-yl-pyridin-3-amine], the Ki was found to be 0.0794 µM.

`FC(F)(F)c1ccc(Nc2ccc(C3CNCCO3)nc2)cc1` (racemic) [Example 6, (RS)-6-Morpholin-2-yl-N-[4-(trifluoromethyl)phenyl]pyridin-3-amine]: the Ki was found to be 0.0159 µM.

Consider `CCCc1n[nH]c(C(=O)Nc2cnc(C3CNCCO3)c(Cl)c2)c1Cl` (racemic) [Example 108, (RS)-4-Chloro-N-(5-chloro-6-morpholin-2-yl-3-pyridyl)-3-propyl-1H-pyrazole-5-carboxamide], for which the Ki stood at 0.0321 µM.

On to `FC(F)(F)c1ccc(Nc2ccc([C@H]3CNCCO3)nc2)cc1` [Example 25, 6-[(2R)-Morpholin-2-yl]-N-[4-(trifluoromethyl)phenyl]pyridin-3-amine], for which the Ki turned out to be 0.0254 µM.

Turning to `O=C(Nc1ccc([C@H]2CNCCO2)nc1)Nc1cccc(Cl)c1` [Example 61, 1-(3-Chlorophenyl)-3-[6-[(2R)-morpholin-2-yl]-3-pyridyl]urea], the Ki worked out at 0.0132 µM.

The target of the next assay is mouse TAAR1 (Mus musculus (Mouse), UniProt Q923Y8). As to the kind of experiment: Radioligand binding assay on mouse TAAR1. As to conditions: mouse TAAR1, membranes of stably transfected HEK-293 cells; first value of the pair; read-out: Ki (μM) mouse/rat: mouse. Here is the method: as §1, §2
Radioligand Binding Assay on Mouse TAAR1
as §3
as §4, with “1,000” for “1′000”, “48,000×g” for “48′000×g”
For `Clc1cccc(Nc2ccc(C3CNCCO3)nc2)c1` (racemic) [Example 4, (RS)—N-(3-Chlorophenyl)-6-morpholin-2-yl-pyridin-3-amine], the Ki stood at 0.0034 µM.

On to `FC(F)(F)c1ccc(Nc2cnc(C3CNCCO3)c(Cl)c2)nc1` (racemic) [Example 103, (RS)-5-Chloro-6-morpholin-2-yl-N-[5-(trifluoromethyl)-2-pyridyl]pyridin-3-amine], for which the Ki worked out at 0.0677 µM.

In the case of `Fc1cc(Nc2ccc(Cl)cn2)cnc1C1CNCCO1` (racemic) [Example 110, (RS)—N-(5-Chloro-2-pyridyl)-5-fluoro-6-morpholin-2-yl-pyridin-3-amine], the Ki is 0.0245 µM.

As for `FC(F)(F)c1ccc(Nc2ccc([C@@H]3CNCCO3)nc2)cc1` [Example 19, 6-[(2S)-Morpholin-2-yl]-N-[4-(trifluoromethyl)phenyl]pyridin-3-amine], the Ki came to 0.0027 µM.

For the compound `FC(F)(F)c1ccc(Nc2ccc([C@H]3CNCCO3)nc2)cc1` [Example 25, 6-[(2R)-Morpholin-2-yl]-N-[4-(trifluoromethyl)phenyl]pyridin-3-amine], the Ki was 0.0048 µM.

For `O=C(Nc1ccc([C@@H]2CNCCO2)nc1)c1cccc(Cl)c1` [Example 32, 3-Chloro-N-[6-[(2S)-morpholin-2-yl]-3-pyridyl]benzamide], the Ki turned out to be 0.0028 µM.

For `O=C(Nc1ccc([C@@H]2CNCCO2)nc1)c1ccnc(C(F)(F)F)c1` [Example 34, N-[6-[(2S)-Morpholin-2-yl]-3-pyridyl]-2-(trifluoromethyl)pyridine-4-carboxamide], the Ki was 0.0427 µM.

On to `O=C(Nc1ccc([C@@H]2CNCCO2)nc1)Nc1cccc(Cl)c1` [Example 41, 1-(3-Chlorophenyl)-3-[6-[(2S)-morpholin-2-yl]-3-pyridyl]urea], for which the Ki amounted to 0.0016 µM.

For the compound `O=C(Nc1ccc([C@H]2CNCCO2)nc1)c1ccnc(C(F)(F)F)c1` [Example 54, N-[6-[(2R)-Morpholin-2-yl]-3-pyridyl]-2-(trifluoromethyl)pyridine-4-carboxamide], the Ki worked out at 0.0329 µM.

Turning to `O=C(Nc1ccc([C@H]2CNCCO2)nc1)Nc1cccc(Cl)c1` [Example 61, 1-(3-Chlorophenyl)-3-[6-[(2R)-morpholin-2-yl]-3-pyridyl]urea], the Ki is 0.0035 µM.

For `CCOc1n[nH]c(C(=O)Nc2ccc([C@H]3CNCCO3)nc2)c1Cl` [Example 100, 4-Chloro-3-ethoxy-N-[6-[(2R)-morpholin-2-yl]-3-pyridyl]-1H-pyrazole-5-carboxamide], the Ki worked out at 0.0158 µM.

Consider `O=C(Nc1ccc([C@H]2CNCCO2)nc1)c1[nH]nc(OCC(F)(F)F)c1Cl` [Example 101, 4-Chloro-N-[6-[(2R)-morpholin-2-yl]-3-pyridyl]-3-(2,2,2-trifluoroethoxy)-1H-pyrazole-5-carboxamide], for which the Ki stood at 0.0094 µM.

Regarding `CCOc1n[nH]c(C(=O)Nc2ccc([C@@H]3CNCCO3)nc2)c1Cl` [Example 106, 4-Chloro-3-ethoxy-N-[6-[(2S)-morpholin-2-yl]-3-pyridyl]-1H-pyrazole-5-carboxamide], the Ki stood at 0.0085 µM.
